2 molecules from ChEMBL document CHEMBL1142336, “Overcoming undesirable HERG potency of chemokine receptor antagonists using baseline lipophilicity relationships” (J Med Chem, 2008) can be followed below.

Sequences of proteins named here, by UniProt entry; tags and fusion partners are left off.
UniProt P51685, whole entry: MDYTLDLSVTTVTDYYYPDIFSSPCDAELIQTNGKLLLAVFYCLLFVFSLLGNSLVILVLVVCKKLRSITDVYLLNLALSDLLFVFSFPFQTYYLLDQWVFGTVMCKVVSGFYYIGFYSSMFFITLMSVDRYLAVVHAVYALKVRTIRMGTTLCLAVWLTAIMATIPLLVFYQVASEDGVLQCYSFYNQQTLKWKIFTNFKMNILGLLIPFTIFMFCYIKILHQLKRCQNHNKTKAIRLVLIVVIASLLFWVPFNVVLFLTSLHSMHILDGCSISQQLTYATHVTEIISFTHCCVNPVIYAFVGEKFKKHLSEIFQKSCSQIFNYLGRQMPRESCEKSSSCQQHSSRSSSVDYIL

The test concerns the target C-C chemokine receptor type 8 (Homo sapiens, UniProt P51685). The test can be described thus: Antagonist activity at CCR8 receptor. Format: functional.

pIC50: −log10 of the molar value.

The pIC50 is the negative decadic logarithm of the IC50, by convention in mol/L. A high value points to a low IC50. In turn, `O=C(c1ccncc1)N1CCC2(CCN(Cc3cccc(Oc4ccccc4)c3)CC2)CC1` showed a pIC50 of 7.74. In turn, `COc1ccccc1Oc1ccccc1CN1CCC2(CC1)CCN(C(=O)c1ccccn1)CC2` gave a pIC50 of 7.79.
